Assay: Particle size of albumin solution after high-pressure homogenization, photon correlation spectroscopy (Malvern Zetasizer)
Type: physicochemical
Experimental: An organic phase was prepared by mixing 3.5 mL of chloroform and 0.6 mL of dehydrated ethanol. A 4% human albumin solution was prepared by dissolving 2 gm of human albumin (Sigma-Aldrich Co, USA) in 50 mL of sterile Type I water. The pH of the human albumin solution was adjusted to 6.0-6.7 by adding either 1N hydrochloric acid or 1N sodium hydroxide solution in sterile water. The above organic solution was added to the albumin phase and the mixture was pre-homogenized with an IKA homogenizer at 6000-10000 RPM (IKA Works, Germany). The resulting emulsion was subjected to high-pressure homogenization (Avestin Inc, USA). The pressure was varied between 20,000 and 30,000 psi and the emulsification process was continued for 5-8 passes. During homogenization the emulsion was cooled between 5° C. and 10° C. by circulating the coolant through the homogenizer from a temperature-controlled heat exchanger (Julabo, USA). […] The emulsion was then transferred to a rotary evaporator (Buchi, Switzerland) and rapidly evaporated to obtain an albumin solution subjected to high pressure homogenization. The evaporator pressure was set during the evaporation by a vacuum pump (Welch) at 1-5 mm Hg and the bath temperature during evaporation was set at 35° C.
The particle size of the albumin solution was determined by photon correlation spectroscopy with a Malvern Zetasizer. It was observed that there were two peaks, one around 5-8 nm and other around 120-140 nm. The peak around 5-8 nm contained nearly 99% by volume and the peak around 120-140 nm had less than 1% by volume (FIG. 9). As a control, the particle size distribution in 4% human serum solution was measured. It had only one peak around 5-8 nm (FIG. 10).

[1] = 4% albumin after homogenization with chloroform and ethanol

## Example 1: 4% human albumin solution homogenized at high pressure with chloroform and ethanol, solvent evaporated; no drug
[1]
  particle size, first peak: 5-8 nm
  particle size, second peak: 120-140 nm
After homogenization
  share of first peak (5-8 nm): ~99 % by volume
  share of second peak (120-140 nm): less than 1 % by volume
Homogenization in an oil-in-water emulsion
  albumin molecules aggregated by denaturation: 2-3%
